Source: ChEMBL document CHEMBL3763142, “Discovery of potent anti-tuberculosis agents targeting leucyl-tRNA synthetase” (Bioorg Med Chem, 2016)
Active and inactive are the calls of the source. The rule behind the calls is not given here.

Tested on: Mycobacterium tuberculosis
Conditions: H37Rv

Row | Structure (SMILES) | MIC
1 | O=[N+]([O-])c1ccc(-c2csc(N/N=C\c3ccc(O)c([N+](=O)[O-])c3)n2)cc1 | inactive
2 | O=[N+]([O-])c1cc(/C=N\Nc2nccs2)ccc1O | inactive
